# AlphaSeq binding of Ab-14 heavy chain variants to a spike HR2 peptide

All variants were tested on one target, the spike HR2 peptide PDVDLGDISGINAS (SARS-CoV-2).

Ab-14 is the parent antibody, in scFv form: VH, then the linker GGGGSGGGGSGGGGS, then VL. The light chain is unchanged in all variants.
VH: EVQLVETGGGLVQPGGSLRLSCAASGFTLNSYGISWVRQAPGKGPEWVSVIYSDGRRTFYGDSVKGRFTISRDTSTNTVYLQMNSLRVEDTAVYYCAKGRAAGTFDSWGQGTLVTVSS
VL: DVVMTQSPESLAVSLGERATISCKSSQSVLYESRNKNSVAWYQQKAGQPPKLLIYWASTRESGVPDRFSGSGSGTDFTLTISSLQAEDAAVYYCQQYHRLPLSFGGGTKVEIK

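The starting antibody came from a phage panning campaign against this peptide. AAYL49 was designed without a model: most single CDR substitutions and a random sample of double and triple ones. AlphaSeq pools MATa yeast showing the antibodies with MATalpha yeast showing the peptide. The frequency of each diploid, read from paired DNA barcodes, reflects how well the two displayed proteins bind. A regression on co-assayed BCL2-family reference pairs converts the normalised counts of each replicate to an apparent Kd. Each pool was mated in three replicate cultures.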

Each variant is given by its three heavy chain CDRs, as the data file delimits them; those of the parent are GFTLNSYGIS, VIYSDGRRTFYGDSVK, GRAAGTFDS. Numbers give log10(Kd / nM), so 0 is 1 nM and 3 is 1 µM. Smaller is tighter. A mean of the replicates is given; it leaves out those without a signal. A pair that was not seen in that replicate is written "ND"; this usually means weak binding, but a binder can also be missed.

| # | CDR-H1 | CDR-H2 | CDR-H3 | log10 Kd, replicates | log10 Kd (nM), mean | signal with controls |
|---|---|---|---|---|---|---|
| 1 | GFTLNSYGIS | PIYSDGHRTFYGDSVK | GRAAGTFDS | ND ND ND | ND | 0 of 9 |
| 2 | GFTLNSYELS | VIYSDGRRTFYGDSVK | GRAAGTFDS | ND ND ND | ND | 0 of 9 |
| 3 | RFTLMSYGIS | VRYSDGRRTFYGDSVK | GRAAGTFDS | ND ND ND | ND | 1 of 9 (3.67) |
| 4 | GETLNSYGIS | VIYSDGNRTFYGDSVK | GRAAGTFCS | 2.53 1.70 1.99 | 2.07 | 0 of 9 |
| 5 | GFTLNSYTIS | VIYSDGRPTFYYDSVK | GRAAGTFDS | ND 3.93 ND | 3.93 | 5 of 9 (4.61) |
| 6 | GFTLNSMGIS | VISSDARRTFYGDSVK | GRAAGTFDS | ND ND ND | ND | 1 of 9 (2.06) |
| 7 | GITLNSYGIW | VIYSDGRRTFYGSSVK | GRAAGTFDS | 3.67 ND ND | 3.67 | 1 of 9 (4.49) |
| 8 | GFTLNSYGIS | VIYSDHARTFYGDSVK | GRAHGTFDS | ND ND ND | ND | 1 of 9 (3.43) |
| 9 | GFTLNSYGIS | VIYSDERRTFYGDSVK | GRTAGTFDS | 3.46 ND 4.34 | 3.90 | 3 of 9 (4.06) |
| 10 | GATLNSYGIS | VIYSDGRRTFTGDSVK | GRAAGTFDS | ND ND ND | ND | 2 of 9 (3.76) |
| 11 | GFTLNSMGIS | GIYSDGRRTFYGDSVK | GRAWGTFDS | ND ND ND | ND | 0 of 9 |
| 12 | GFTLNSYGIS | VIYSDGRRTFNGDSFK | GKAAGTFDS | 2.50 2.39 2.99 | 2.63 | 4 of 9 (4.32) |
| 13 | GFTANSYGIS | VIYSDGRRTSYGDSVK | HRAAGTFDS | ND ND ND | ND | 0 of 9 |
| 14 | RFSPNSYGIS | VIYSDGRRTFYGDSVK | GRAAGTFDS | ND ND ND | ND | 1 of 9 (4.50) |
| 15 | GPTLNSYGYS | VIYSDGRLTFYGDSVK | GRAAGTFDS | 4.29 4.44 ND | 4.36 | 2 of 9 (4.08) |
| 16 | GFTLNSYGIS | VIYSDGRRTFYGDSVV | GYANGTFDS | ND ND ND | ND | 0 of 9 |
| 17 | GFTLNSYGIS | VIYSDGSRTFYGDSVM | GRAAGTFDF | ND ND ND | ND | 0 of 9 |
| 18 | GFTLNSYQIS | VIYSDGRRIFYGDSVK | GRAAGTFMS | ND ND ND | ND | 1 of 9 (4.55) |
| 19 | GFYLNSYGIS | VIYSDGRRTFYGDWVK | GAAAGTFDS | ND ND ND | ND | 0 of 9 |
| 20 | GFTLNFYGIS | VIYSDNRRTFYGDSVK | GRAAGGFDS | ND ND ND | ND | 1 of 9 (3.22) |
| 21 | GFTGNSYGIS | VIYSDFRRTFYGDSVK | GRAAGTFDW | ND ND ND | ND | 3 of 9 (4.26) |
| 22 | GFTLNVYGIG | VIYNDGRRTFYGDSVK | GRAAGTFDS | ND ND ND | ND | 0 of 9 |
| 23 | GFTCNSYGIS | VILSDGPRTFYGDSVK | GRAAGTFDS | ND ND 3.44 | 3.44 | 4 of 9 (4.20) |
| 24 | FFTLNSYGIS | VIYSDGRRTFYGDAVK | GRAAGTFES | 6.17 ND ND | 6.17 | 2 of 9 (3.90) |
| 25 | GFTLNSYGIS | VIISDGRRTFYGDSAK | GRAAGTFDG | ND ND ND | ND | 0 of 9 |
| 26 | GFTLNSYGIS | GIYEDGRRTFYGDSTK | GRAAGTFDS | ND 2.93 ND | 2.93 | 0 of 9 |
| 27 | GFKLNWYGIS | VIYLDGRRTFYGDSVK | GRAAGTFDS | ND 3.56 ND | 3.56 | 2 of 9 (4.12) |
| 28 | GFTLNSYGIS | FIYSDGRRTFYGDSVK | GRAIGTFPS | ND ND ND | ND | 2 of 9 (4.08) |
| 29 | GFTKNSYGIS | VIYSDPRRTFYGDSVK | GRAAGTTDS | 5.03 5.32 5.61 | 5.32 | 5 of 9 (4.09) |
| 30 | GFTLNSLGKS | VIYSDGRHTFYGDSVK | GRAAGTFDS | 4.55 4.94 3.27 | 4.25 | 5 of 9 (3.43) |
| 31 | GFTLNSYGIS | VPYSDGRRMFYGDSVK | KRAAGTFDS | 3.77 ND ND | 3.77 | 3 of 9 (3.26) |
| 32 | GFTLNSYGIS | VIYSDGRRTFYQDSVK | GREAGTFDD | -0.13 0.24 -0.09 | 0.01 | 0 of 9 |
| 33 | GFTHNSYGIS | SIYSDGRRTFYGDSVK | PRAAGTFDS | ND 3.96 ND | 3.96 | 1 of 9 (3.97) |
| 34 | GFTLNSRGIS | VIYSDGNRTFYGPSVK | GRAAGTFDS | ND ND ND | ND | 1 of 9 (3.93) |
| 35 | GPTLNSYGIS | VIYSDGRRTFYGDSVD | GRAAMTFDS | ND 2.89 4.55 | 3.72 | 1 of 9 (3.52) |
| 36 | GFNLNSYGIS | VIYSDGRRIFYGDSVK | MRAAGTFDS | ND 5.31 5.74 | 5.52 | 1 of 9 (4.58) |
| 37 | GFTLNSYGIS | VIYSDGCVTFYGDSVK | GYAAGTFDS | ND ND ND | ND | 0 of 9 |
| 38 | GFTLNSYGIS | VIYSDGRRTFYGDSVP | TRVAGTFDS | ND ND 3.53 | 3.53 | 0 of 9 |
| 39 | GFTLNPYGIS | VIYSDGRRTFYADSVK | GRAAGTTDS | ND 3.04 3.03 | 3.03 | 4 of 9 (4.13) |
| 40 | GTTLNSYGIS | VIYSDGRRTFRGDSVK | GRYAGTFDS | ND ND 2.97 | 2.97 | 1 of 9 (2.88) |
| 41 | GFELNSCGIS | VIYSDGRRTFYGDSVK | GRAAGAFDS | ND ND ND | ND | 0 of 9 |
| 42 | GFTLNSYGIS | VIYSVGRRTFYGDSVK | GNAAGTFDN | ND ND ND | ND | 1 of 9 (4.24) |
| 43 | GFTLNSYFIS | VIYSDGRRTFYGLSVK | LRAAGTFDS | ND ND ND | ND | 0 of 9 |
| 44 | GFTLNSYGIS | VDESDGRRCFYGDSVK | GRAAGTFDS | ND ND ND | ND | 0 of 9 |
| 45 | GRTLNSYGIS | VIYSDGRRTFYGDSVK | GRAAGTFDS | 2.06 1.97 2.21 | 2.08 | 2 of 9 (3.84) |
| 46 | GFDLNSPGIS | VIYSDGRRTFYGDSVK | GRAAGTFDD | ND ND ND | ND | 1 of 9 (2.66) |
| 47 | KFTLNSYGIS | VIYSFGRVTFYGDSVK | GRAAGTFDS | ND ND ND | ND | 0 of 9 |

From the list, the first 4 with no signal in any replicate:

CDR-H1,CDR-H2,CDR-H3,"log10 Kd, replicates","log10 Kd (nM), mean",signal with controls
GFTLNSYGIS,PIYSDGHRTFYGDSVK,GRAAGTFDS,ND ND ND,ND,0 of 9
GFTLNSYELS,VIYSDGRRTFYGDSVK,GRAAGTFDS,ND ND ND,ND,0 of 9
RFTLMSYGIS,VRYSDGRRTFYGDSVK,GRAAGTFDS,ND ND ND,ND,1 of 9 (3.67)
GFTLNSMGIS,VISSDARRTFYGDSVK,GRAAGTFDS,ND ND ND,ND,1 of 9 (2.06)

Background: pairings of library AAYL49 with three empty control strains gave a value in 15% of cases (median 4.06, 5th percentile 2.83). Values in that range, when seen in few replicates, are hard to tell from nonspecific mating. For each scFv, signals with the empty controls are counted beside the result, with their mean in brackets. In this assay the parent's reference entry averaged 0.65; its copy inside this library read 4.11 (one replicate of three).

Reference: Engelhart et al. 2022, doi:10.1038/s41597-022-01779-4. File: FLAb, binding data.